# Results from PubChem BioAssay AID2006 (Sanford-Burnham Center for Chemical Genomics, 2009).
# Amino acid sequences for entries named in this document (tags omitted).
# UniProt P63279, whole entry: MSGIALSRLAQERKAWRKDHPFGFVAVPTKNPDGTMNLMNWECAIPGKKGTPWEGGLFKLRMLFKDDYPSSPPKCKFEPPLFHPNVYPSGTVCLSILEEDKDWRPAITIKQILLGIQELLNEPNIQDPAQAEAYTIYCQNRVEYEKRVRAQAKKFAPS
# The entries are a selection whose mix differs from that of the whole data set. Some tests of the compounds listed are not included; inactive here does not mean inactive elsewhere. The source made the active and inactive calls. Rule as the data show it: active = inhibition above about 50% (passing the limit was not always enough); inconclusive = no clear call, values can overlap the other calls.
# Molecular target: SUMO-conjugating enzyme UBC9 (Homo sapiens) (UniProt P63279)
# Assay: inhibitors of in vitro SUMOylation cascade, primary screen, biochemical, HTRF, uHTS (AID 2006)
# Conditions: HTRF SUMOylation assay, SAE1/SAE2 + UBC9, in vitro; at 35 µM; hits give high values
row,SMILES,inhibition
1,COc1cc(C(=O)NCC2(N(C)C)CCCCC2)c([N+](=O)[O-])cc1OC,inactive: 2.5%
2,CN(C)C1(CNC(=O)c2ccc(Br)cc2)CCCCC1,inactive: 20.1%
3,O=C(NCC1(N2CCCCC2)CCCCC1)c1cccc(Cl)c1,inactive: -4%
4,COc1ccc(Cl)cc1C(=O)NCC1(N(C)C)CCCCC1,inactive: 6.9%
5,COc1cccc(C(=O)NCC2(N3CCCCC3)CCCCC2)c1,inactive: 15.9%
6,O=C(OC1CN2CCC1CC2)C(CO)(c1ccccc1)c1ccccc1 (centres undefined),inactive: -8%
7,CC(C)Oc1ccc(C(=O)NCC2(N(C)C)CCCCC2)cc1,inactive: 21.7%
8,CN(C)c1cccc(C(=O)NCC2(N(C)C)CCCCC2)c1,inactive: 17.1%
9,COc1ccc(Br)c(C(=O)NCC2(N3CCCCC3)CCCCC2)c1,inactive: -1.7%
10,CN1[C@@H]2CC[C@H]1CC(OC(=O)C(O)(c1ccccc1)c1ccccc1)C2 (some centres undefined),inactive: -21%
11,O=C(NCC1(N2CCCCC2)CCCCC1)c1cc([N+](=O)[O-])ccc1Cl,inactive: -2.2%
12,Cc1ccc(C(=O)NCC2(N3CCCCC3)CCCCC2)cc1,inactive: 0.3%
13,COc1cc(SC)ccc1C(=O)NCC1(N(C)C)CCCCC1,inactive: 19.4%
14,CCN(CC)CC(C)C(C)OC(=O)C(O)(c1ccccc1)c1ccccc1 (centres undefined),inactive: 16.7%
15,CC(C)N1C(=O)CC2(CCN(CCOC(=O)C(O)(c3ccccc3)c3ccccc3)CC2)C1=O,inactive: -19.5%
16,CN(C)c1ccc(C(=O)NCC2(N(C)C)CCCCC2)cc1,inactive: 8.5%
17,CN(C)C1CCCC1OC(=O)C(O)(c1ccccc1)c1ccccc1 (centres undefined),inactive: -5.8%
18,Cc1ccccc1C(=O)NCC1(N2CCCCC2)CCCCC1,inactive: 12%
19,COc1ccc(C(=O)NCC2(N(C)C)CCCCC2)cc1,inactive: 18.5%
20,O=C(NCC1(N2CCCCC2)CCCCC1)c1cccc(Br)c1,inactive: 1.1%
21,CCN1CCCC(OC(=O)C2(O)c3ccccc3C=Cc3ccccc32)C1 (centres undefined),inactive: 28.8%
22,Cc1cc(C(=O)NCC2(N3CCCCC3)CCCCC2)ccc1[N+](=O)[O-],inactive: 12.3%
23,O=C(NCC1(N2CCCCC2)CCCCC1)c1cc(F)c(F)cc1Cl,inactive: -7.8%
24,C=CCN1CCN(CCOC(=O)C(O)(c2ccccc2)c2ccccc2)CC1,inactive: 3.5%
